Measured values: US6936585B2, “Corticotropin releasing factor 2 receptor agonists” (priority 2002, dated 2005)
pEC50: −log10 of the molar value.

Columns and labels:
CRF1R = target: T1, CRF1R (Homo sapiens, UniProt P34998); test: CRF1R agonist activation (EC50 / Emax), called comparative CRF binding; format: cell-based; details: for Emax: read-out: CRF1R Emax
T1 sequence (P34998 24-415): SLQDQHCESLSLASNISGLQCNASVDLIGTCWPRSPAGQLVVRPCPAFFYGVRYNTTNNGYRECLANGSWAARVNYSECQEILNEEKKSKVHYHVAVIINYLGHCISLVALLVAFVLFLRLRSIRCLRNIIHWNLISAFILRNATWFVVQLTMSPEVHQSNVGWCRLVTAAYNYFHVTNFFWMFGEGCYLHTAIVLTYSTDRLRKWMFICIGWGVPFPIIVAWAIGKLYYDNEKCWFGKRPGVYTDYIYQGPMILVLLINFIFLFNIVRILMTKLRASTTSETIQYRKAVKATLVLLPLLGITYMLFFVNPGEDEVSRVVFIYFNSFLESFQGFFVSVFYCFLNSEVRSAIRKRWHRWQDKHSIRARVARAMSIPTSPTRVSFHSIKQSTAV
In short: (§1)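 Peptides are tested on cells bearing CRF1R or CRF2R, full length or as ligand-binding-domain constructs coupled to reporters or G proteins. Activation is scored by cAMP rise, measured in lysates or by CRE-reporter output, against vehicle control.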

CRF2R = target: T2, CRF2R (Homo sapiens, UniProt Q13324); test: CRF2R agonist activation (EC50 / Emax), called comparative CRF binding; format: cell-based; details: for Emax: read-out: CRF2R Emax
T2 sequence (Q13324 1-411): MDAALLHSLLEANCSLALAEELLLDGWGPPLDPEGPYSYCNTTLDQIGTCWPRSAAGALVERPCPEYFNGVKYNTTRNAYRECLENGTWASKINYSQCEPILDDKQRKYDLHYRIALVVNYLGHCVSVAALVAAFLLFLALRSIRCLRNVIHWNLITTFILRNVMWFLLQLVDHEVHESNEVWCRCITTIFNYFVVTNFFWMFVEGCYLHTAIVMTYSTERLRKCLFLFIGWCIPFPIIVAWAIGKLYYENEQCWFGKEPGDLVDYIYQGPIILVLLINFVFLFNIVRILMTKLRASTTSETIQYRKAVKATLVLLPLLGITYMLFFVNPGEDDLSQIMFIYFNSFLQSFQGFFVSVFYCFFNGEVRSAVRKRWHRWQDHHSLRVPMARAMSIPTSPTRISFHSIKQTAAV
In short: as §1

Compound | Emax (CRF1R) [%] | Emax (CRF2R) [%] | pEC50 (CRF1R; CRF1R EC50) | pEC50 (CRF2R)
CC[C@H](C)[C@H](NC(=O)[C@H](CCCNC(=N)N)NC(=O)[C@H](C)NC(=O)[C@H](CC(N)=O)NC(=O)[C@@H](NC(=O)[C@@H](NC(=O)[C@H](C)NC(=O)[C@H](CCC(N)=O)NC(=O)[C@H](CCC(N)=O)NC(=O)[C@H](CCCCN)NC(=O)[C@H](CCC(=O)O)NC(=O)[C@H](CCCCN)NC(=O)[C@H](CCC(=O)O)NC(=O)[C@H](CCC(N)=O)NC(=O)[C@H](CCCCN)NC(=O)[C@H](CCC(=O)O)NC(=O)[C@@H](NC(=O)[C@H](CCC(=O)O)NC(=O)[C@@H](NC(=O)[C@H](CC(C)C)NC(=O)[C@@H](NC(=O)[C@H](CCCNC(=N)N)NC(=O)[C@H](CC(C)C)NC(=O)[C@H](CC(C)C)NC(=O)[C@H](CCC(N)=O)NC(=O)[C@H](Cc1ccccc1)NC(=O)[C@@H]1CCCN1C(=O)[C@@H](NC(=O)[C@H](CC(=O)O)NC(=O)[C@@H](NC(=O)[C@H](CO)NC(=O)[C@@H](NC(=O)[C@@H]1CCCN1C(=O)[C@@H]1CCCN1C(=O)CNC(=O)[C@@H]1CCC(=O)N1)[C@@H](C)CC)[C@@H](C)CC)C(C)C)[C@@H](C)CC)[C@@H](C)CC)[C@@H](C)CC)[C@@H](C)O)[C@@H](C)O)C(=O)N[C@@H](CC(C)C)C(=O)N[C@@H](C)C(=O)N[C@@H](CCCNC(=N)N)C(=O)N[C@H](C(N)=O)C(C)C [compound 171] | 99 | 100 |  | 
CC[C@H](C)[C@H](NC(=O)[C@@H](NC(=O)[C@H](CC(=O)O)NC(=O)[C@H](CC(C)C)NC(=O)[C@H](CC(C)C)NC(=O)[C@H](CC(C)C)NC(=O)[C@H](CCCNC(=N)N)NC(=O)[C@H](CC(N)=O)NC(=O)[C@H](CC(N)=O)NC(=O)[C@H](C)NC(=O)[C@H](C)NC(=O)[C@H](CCC(N)=O)NC(=O)[C@H](CCC(N)=O)NC(=O)[C@H](CCCCN)NC(=O)[C@H](CCC(=O)O)NC(=O)[C@H](CCCCN)NC(=O)[C@H](CCC(=O)O)NC(=O)[C@H](CCC(N)=O)NC(=O)[C@H](CCCCN)NC(=O)[C@H](CCC(=O)O)NC(=O)[C@@H](NC(=O)[C@H](CCC(=O)O)NC(=O)[C@@H](NC(=O)[C@H](CCSC)NC(=O)[C@H](CCCCN)NC(=O)[C@H](CCCNC(=N)N)NC(=O)[C@H](CC(C)C)NC(=O)[C@H](CC(C)C)NC(=O)[C@H](Cc1c[nH]c2ccccc12)NC(=O)[C@H](Cc1c[nH]c2ccccc12)NC(=O)[C@@H]1CCCN1C(=O)[C@H](CC(C)C)NC(=O)[C@H](CC(=O)O)NC(=O)[C@@H](NC(=O)[C@H](CO)NC(=O)[C@@H](NC(=O)[C@@H]1CCCN1C(=O)[C@@H]1CCCN1C(=O)CNC(=O)[C@@H]1CCC(=O)N1)[C@@H](C)CC)[C@@H](C)CC)[C@@H](C)CC)[C@@H](C)CC)[C@@H](C)O)C(N)=O [compound 216] | 98 | 90 |  | 
CC[C@H](C)[C@H](NC(=O)[C@@H](NC(=O)[C@H](C)NC(=O)[C@H](CC(C)C)NC(=O)[C@H](CC(C)C)NC(=O)[C@H](CC(C)C)NC(=O)[C@H](CCCNC(=N)N)NC(=O)[C@H](CC(N)=O)NC(=O)[C@H](CC(N)=O)NC(=O)[C@H](C)NC(=O)[C@H](C)NC(=O)[C@H](CCC(N)=O)NC(=O)[C@H](CCC(N)=O)NC(=O)[C@H](CCCCN)NC(=O)[C@H](CCC(=O)O)NC(=O)[C@H](CCCCN)NC(=O)[C@H](CCC(=O)O)NC(=O)[C@H](CCC(N)=O)NC(=O)[C@H](CCCCN)NC(=O)[C@H](CCC(=O)O)NC(=O)[C@@H](NC(=O)[C@H](CCC(=O)O)NC(=O)[C@@H](NC(=O)[C@H](CCSC)NC(=O)[C@H](CCCCN)NC(=O)[C@H](CCCNC(=N)N)NC(=O)[C@H](CC(C)C)NC(=O)[C@H](CC(C)C)NC(=O)[C@H](CCC(N)=O)NC(=O)[C@H](Cc1ccccc1)NC(=O)[C@@H]1CCCN1C(=O)[C@H](CC(C)C)NC(=O)[C@H](CC(=O)O)NC(=O)[C@@H](NC(=O)[C@H](CO)NC(=O)[C@@H](NC(=O)[C@@H]1CCCN1C(=O)[C@@H]1CCCN1C(=O)CNC(=O)[C@@H]1CCC(=O)N1)[C@@H](C)CC)[C@@H](C)CC)[C@@H](C)CC)[C@@H](C)CC)[C@@H](C)O)C(N)=O [compound 250] | 99 | 100 |  | 
CC[C@H](C)[C@H](NC(=O)[C@H](CCC(=O)O)NC(=O)[C@@H](NC(=O)[C@H](CCSC)NC(=O)[C@H](CCCCN)NC(=O)[C@H](CCCNC(=N)N)NC(=O)[C@H](CC(C)C)NC(=O)[C@H](CC(C)C)NC(=O)[C@H](CCC(N)=O)NC(=O)[C@H](Cc1ccccc1)NC(=O)[C@@H]1CCCN1C(=O)[C@H](CC(C)C)NC(=O)[C@H](CC(=O)O)NC(=O)[C@@H](NC(=O)[C@H](CO)NC(=O)[C@@H](NC(=O)[C@@H]1CCCN1C(=O)[C@@H]1CCCN1C(=O)CNC(=O)[C@@H]1CCC(=O)N1)[C@@H](C)CC)[C@@H](C)CC)[C@@H](C)CC)C(=O)N[C@@H](CCC(=O)O)C(=O)N[C@@H](CCCCN)C(=O)N[C@@H](CCC(N)=O)C(=O)N[C@@H](CCC(=O)O)C(=O)N[C@@H](CCCCN)C(=O)N[C@@H](CCC(=O)O)C(=O)N[C@@H](CCCCN)C(=O)N[C@@H](CCC(N)=O)C(=O)N[C@@H](CCC(N)=O)C(=O)N[C@@H](C)C(=O)N[C@H](C(=O)N[C@H](C(=O)N[C@@H](CC(N)=O)C(=O)N[C@@H](C)C(=O)N[C@@H](CCCNC(=N)N)C(=O)N[C@@H](CC(C)C)C(=O)N[C@@H](CC(C)C)C(=O)N[C@@H](C)C(=O)N[C@H](C(=O)N[C@H](C(N)=O)C(C)C)[C@@H](C)O)[C@@H](C)O)[C@@H](C)O [compound 21] | 88 | 96 |  | 
CC[C@H](C)[C@H](NC(=O)[C@H](CCC(=O)O)NC(=O)[C@@H](NC(=O)[C@H](CCSC)NC(=O)[C@H](CCCCN)NC(=O)[C@H](CCCNC(=N)N)NC(=O)[C@H](CC(C)C)NC(=O)[C@H](CC(C)C)NC(=O)[C@H](CCC(N)=O)NC(=O)[C@H](Cc1ccccc1)NC(=O)[C@@H]1CCCN1C(=O)[C@H](CC(C)C)NC(=O)[C@H](CC(=O)O)NC(=O)[C@@H](NC(=O)[C@H](CO)NC(=O)[C@@H](NC(=O)[C@@H]1CCCN1C(=O)[C@@H]1CCCN1C(=O)CNC(=O)[C@@H]1CCC(=O)N1)[C@@H](C)CC)[C@@H](C)CC)[C@@H](C)CC)C(=O)N[C@@H](CCC(=O)O)C(=O)N[C@@H](CCCCN)C(=O)N[C@@H](CCC(N)=O)C(=O)N[C@@H](CCC(=O)O)C(=O)N[C@@H](CCCCN)C(=O)N[C@@H](CCC(=O)O)C(=O)N[C@@H](CCCCN)C(=O)N[C@@H](CCC(N)=O)C(=O)N[C@@H](CCC(N)=O)C(=O)N[C@@H](C)C(=O)N[C@H](C(=O)N[C@H](C(=O)N[C@@H](CC(N)=O)C(=O)N[C@@H](CCCNC(=N)N)C(=O)N[C@@H](CC(C)C)C(=O)N[C@@H](CC(C)C)C(=O)N[C@@H](CC(C)C)C(=O)N[C@@H](C)C(=O)N[C@@H](CCCNC(=N)N)C(=O)N[C@H](C(N)=O)C(C)C)[C@@H](C)O)[C@@H](C)O [compound 19] | 83 | 75 | 6.63 | 8.13
CC[C@H](C)[C@H](NC(=O)[C@@H](NC(=O)[C@H](CC(=O)O)NC(=O)[C@H](CC(C)C)NC(=O)[C@H](CC(C)C)NC(=O)[C@H](CC(C)C)NC(=O)[C@H](CCCNC(=N)N)NC(=O)[C@H](CC(N)=O)NC(=O)[C@H](CC(N)=O)NC(=O)[C@H](C)NC(=O)[C@H](C)NC(=O)[C@H](CCC(N)=O)NC(=O)[C@H](CCC(N)=O)NC(=O)[C@H](CCCCN)NC(=O)[C@H](CCC(=O)O)NC(=O)[C@H](CCCCN)NC(=O)[C@H](CCC(=O)O)NC(=O)[C@H](CCC(N)=O)NC(=O)[C@H](CCCCN)NC(=O)[C@H](CCC(=O)O)NC(=O)[C@@H](NC(=O)[C@H](CCC(=O)O)NC(=O)[C@@H](NC(=O)[C@H](CCSC)NC(=O)[C@H](CCCCN)NC(=O)[C@H](CCCNC(=N)N)NC(=O)[C@H](CC(C)C)NC(=O)[C@H](CC(C)C)NC(=O)CNC(=O)[C@@H](NC(=O)[C@H](CO)NC(=O)[C@H](CC(C)C)NC(=O)[C@H](CC(=O)O)NC(=O)[C@@H](NC(=O)[C@H](CO)NC(=O)[C@@H](NC(=O)[C@@H]1CCCN1C(=O)[C@@H]1CCCN1C(=O)CNC(=O)[C@@H]1CCC(=O)N1)[C@@H](C)CC)[C@@H](C)CC)[C@@H](C)CC)[C@@H](C)CC)[C@@H](C)CC)[C@@H](C)O)C(N)=O [compound 25] | 92.3 | 81.9 |  | 
